# Experimental data: the kinase profiling compilation of Christmann-Franck et al. (2016)
# Chains of the proteins cited; added tags and fusions are not shown. Lines headed by an entry give the natural chain unless they say otherwise; changes in a name come on top.
# UniProt Q9HBY8: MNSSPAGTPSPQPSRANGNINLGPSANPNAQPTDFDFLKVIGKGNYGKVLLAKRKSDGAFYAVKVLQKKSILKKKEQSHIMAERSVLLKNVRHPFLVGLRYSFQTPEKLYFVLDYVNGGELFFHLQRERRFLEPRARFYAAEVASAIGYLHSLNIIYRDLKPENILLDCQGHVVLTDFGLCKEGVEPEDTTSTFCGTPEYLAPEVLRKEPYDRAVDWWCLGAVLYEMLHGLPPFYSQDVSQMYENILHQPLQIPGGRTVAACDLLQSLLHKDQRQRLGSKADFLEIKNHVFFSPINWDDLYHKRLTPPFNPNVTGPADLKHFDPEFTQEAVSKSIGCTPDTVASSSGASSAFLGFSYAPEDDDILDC
# UniProt P48729: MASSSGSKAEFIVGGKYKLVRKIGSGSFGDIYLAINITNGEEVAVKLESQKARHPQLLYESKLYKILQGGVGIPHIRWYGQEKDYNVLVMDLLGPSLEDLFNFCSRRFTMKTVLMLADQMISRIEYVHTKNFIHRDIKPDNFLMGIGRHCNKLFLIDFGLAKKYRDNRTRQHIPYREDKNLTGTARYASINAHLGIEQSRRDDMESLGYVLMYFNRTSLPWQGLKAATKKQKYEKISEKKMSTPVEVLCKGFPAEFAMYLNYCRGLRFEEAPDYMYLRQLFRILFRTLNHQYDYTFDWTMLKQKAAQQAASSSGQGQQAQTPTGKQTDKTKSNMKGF
# UniProt P49674: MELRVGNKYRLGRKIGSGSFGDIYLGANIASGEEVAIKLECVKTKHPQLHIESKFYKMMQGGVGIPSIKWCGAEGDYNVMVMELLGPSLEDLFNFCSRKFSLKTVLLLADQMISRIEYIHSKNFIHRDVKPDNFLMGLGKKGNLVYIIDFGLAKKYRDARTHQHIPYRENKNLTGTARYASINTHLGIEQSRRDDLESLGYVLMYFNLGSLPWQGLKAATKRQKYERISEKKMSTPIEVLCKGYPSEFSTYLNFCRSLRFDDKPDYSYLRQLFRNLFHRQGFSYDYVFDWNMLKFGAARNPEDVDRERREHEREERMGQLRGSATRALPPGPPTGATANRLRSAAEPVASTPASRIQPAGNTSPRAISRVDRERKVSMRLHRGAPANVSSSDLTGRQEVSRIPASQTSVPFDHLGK
# UniProt Q9NQU5: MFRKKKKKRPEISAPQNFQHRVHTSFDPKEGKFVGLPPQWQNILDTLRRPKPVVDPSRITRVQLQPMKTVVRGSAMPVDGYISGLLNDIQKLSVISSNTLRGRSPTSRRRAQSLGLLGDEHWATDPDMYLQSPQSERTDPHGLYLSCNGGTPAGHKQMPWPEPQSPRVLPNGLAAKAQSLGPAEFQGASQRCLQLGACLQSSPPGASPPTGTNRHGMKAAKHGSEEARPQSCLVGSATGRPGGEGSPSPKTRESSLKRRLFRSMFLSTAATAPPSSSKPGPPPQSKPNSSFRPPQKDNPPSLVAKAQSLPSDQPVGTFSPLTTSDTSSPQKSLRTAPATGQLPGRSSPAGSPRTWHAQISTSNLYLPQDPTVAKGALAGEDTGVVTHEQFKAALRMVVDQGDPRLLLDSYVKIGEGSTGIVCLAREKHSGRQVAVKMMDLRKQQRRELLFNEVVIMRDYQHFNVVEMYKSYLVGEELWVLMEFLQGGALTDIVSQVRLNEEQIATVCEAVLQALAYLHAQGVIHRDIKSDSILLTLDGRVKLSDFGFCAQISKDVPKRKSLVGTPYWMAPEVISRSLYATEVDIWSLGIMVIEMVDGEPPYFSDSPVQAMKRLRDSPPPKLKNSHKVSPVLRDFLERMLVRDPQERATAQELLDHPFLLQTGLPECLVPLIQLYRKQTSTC
# UniProt O95747, whole entry, looked up: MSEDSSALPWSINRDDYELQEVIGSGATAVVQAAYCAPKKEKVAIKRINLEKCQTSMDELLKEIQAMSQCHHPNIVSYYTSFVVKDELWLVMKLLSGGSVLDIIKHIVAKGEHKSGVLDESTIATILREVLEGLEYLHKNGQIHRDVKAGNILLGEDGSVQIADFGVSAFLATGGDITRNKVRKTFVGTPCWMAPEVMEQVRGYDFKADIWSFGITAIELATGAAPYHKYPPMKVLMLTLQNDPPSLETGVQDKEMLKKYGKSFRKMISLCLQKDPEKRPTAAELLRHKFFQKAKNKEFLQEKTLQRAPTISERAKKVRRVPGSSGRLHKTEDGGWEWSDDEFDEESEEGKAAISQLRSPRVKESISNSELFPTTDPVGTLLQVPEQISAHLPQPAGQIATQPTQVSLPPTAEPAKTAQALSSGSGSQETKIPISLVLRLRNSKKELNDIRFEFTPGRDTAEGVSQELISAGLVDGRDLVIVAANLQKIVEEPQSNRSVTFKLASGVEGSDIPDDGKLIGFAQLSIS
# UniProt Q9UF33: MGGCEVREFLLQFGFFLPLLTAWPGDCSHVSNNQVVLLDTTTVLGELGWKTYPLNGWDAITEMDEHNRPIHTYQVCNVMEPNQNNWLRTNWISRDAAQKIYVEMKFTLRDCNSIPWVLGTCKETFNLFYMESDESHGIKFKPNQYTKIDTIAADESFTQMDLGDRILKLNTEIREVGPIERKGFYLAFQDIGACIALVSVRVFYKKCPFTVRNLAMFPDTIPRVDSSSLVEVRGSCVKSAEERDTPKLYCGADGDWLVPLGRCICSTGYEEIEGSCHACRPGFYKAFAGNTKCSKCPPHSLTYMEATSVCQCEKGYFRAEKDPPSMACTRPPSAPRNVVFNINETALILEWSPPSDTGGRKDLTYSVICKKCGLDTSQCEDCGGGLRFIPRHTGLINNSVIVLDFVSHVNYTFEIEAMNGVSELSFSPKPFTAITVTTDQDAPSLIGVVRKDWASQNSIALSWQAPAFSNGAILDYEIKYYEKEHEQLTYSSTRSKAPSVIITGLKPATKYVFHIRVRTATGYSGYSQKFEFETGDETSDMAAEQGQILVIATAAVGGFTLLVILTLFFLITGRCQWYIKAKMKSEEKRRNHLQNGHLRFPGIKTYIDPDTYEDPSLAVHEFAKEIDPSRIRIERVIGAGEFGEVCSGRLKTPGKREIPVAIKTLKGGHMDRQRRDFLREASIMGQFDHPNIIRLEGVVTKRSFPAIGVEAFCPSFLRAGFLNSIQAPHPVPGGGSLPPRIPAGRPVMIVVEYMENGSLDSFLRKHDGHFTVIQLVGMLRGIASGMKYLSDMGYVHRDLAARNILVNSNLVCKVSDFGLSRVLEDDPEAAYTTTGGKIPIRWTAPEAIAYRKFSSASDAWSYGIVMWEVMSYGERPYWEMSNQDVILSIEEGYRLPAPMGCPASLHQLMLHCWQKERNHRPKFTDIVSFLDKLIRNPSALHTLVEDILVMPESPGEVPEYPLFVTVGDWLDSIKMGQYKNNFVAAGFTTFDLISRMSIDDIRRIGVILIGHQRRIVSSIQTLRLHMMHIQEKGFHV
# UniProt P51813: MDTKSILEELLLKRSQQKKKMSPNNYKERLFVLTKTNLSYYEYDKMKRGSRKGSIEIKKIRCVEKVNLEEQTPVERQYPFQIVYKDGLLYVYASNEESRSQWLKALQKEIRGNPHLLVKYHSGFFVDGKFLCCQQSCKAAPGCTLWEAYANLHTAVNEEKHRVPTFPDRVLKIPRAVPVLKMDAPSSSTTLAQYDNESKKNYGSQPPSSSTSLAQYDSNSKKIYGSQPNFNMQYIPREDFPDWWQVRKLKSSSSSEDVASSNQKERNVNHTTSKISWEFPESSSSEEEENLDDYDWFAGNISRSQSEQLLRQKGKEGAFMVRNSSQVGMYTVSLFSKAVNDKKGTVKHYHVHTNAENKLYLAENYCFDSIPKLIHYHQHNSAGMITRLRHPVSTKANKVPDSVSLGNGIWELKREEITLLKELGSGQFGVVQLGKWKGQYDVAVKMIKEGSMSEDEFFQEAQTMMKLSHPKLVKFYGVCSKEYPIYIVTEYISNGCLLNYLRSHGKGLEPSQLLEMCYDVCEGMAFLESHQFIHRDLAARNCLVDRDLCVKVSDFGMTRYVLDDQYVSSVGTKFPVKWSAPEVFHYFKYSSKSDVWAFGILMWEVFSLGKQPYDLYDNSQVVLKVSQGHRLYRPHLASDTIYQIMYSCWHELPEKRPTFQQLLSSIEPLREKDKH
# UniProt P42680: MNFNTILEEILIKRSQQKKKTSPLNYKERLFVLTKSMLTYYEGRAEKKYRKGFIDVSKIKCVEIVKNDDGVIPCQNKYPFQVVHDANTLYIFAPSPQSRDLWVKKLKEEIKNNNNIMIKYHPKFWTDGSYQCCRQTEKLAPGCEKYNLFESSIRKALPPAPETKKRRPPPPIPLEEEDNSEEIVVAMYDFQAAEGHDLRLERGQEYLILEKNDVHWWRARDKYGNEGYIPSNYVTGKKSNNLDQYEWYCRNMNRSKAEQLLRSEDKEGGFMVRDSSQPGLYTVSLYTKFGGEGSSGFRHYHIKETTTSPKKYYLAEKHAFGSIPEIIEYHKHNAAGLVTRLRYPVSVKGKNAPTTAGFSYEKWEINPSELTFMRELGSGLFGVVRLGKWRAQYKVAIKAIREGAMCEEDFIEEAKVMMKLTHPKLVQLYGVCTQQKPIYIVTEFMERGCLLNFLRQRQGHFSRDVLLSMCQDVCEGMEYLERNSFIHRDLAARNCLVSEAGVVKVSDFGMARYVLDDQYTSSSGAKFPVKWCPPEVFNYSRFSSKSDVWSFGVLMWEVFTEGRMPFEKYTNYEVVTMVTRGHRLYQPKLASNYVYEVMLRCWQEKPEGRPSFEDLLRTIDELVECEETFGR
# UniProt P22612, whole entry, looked up: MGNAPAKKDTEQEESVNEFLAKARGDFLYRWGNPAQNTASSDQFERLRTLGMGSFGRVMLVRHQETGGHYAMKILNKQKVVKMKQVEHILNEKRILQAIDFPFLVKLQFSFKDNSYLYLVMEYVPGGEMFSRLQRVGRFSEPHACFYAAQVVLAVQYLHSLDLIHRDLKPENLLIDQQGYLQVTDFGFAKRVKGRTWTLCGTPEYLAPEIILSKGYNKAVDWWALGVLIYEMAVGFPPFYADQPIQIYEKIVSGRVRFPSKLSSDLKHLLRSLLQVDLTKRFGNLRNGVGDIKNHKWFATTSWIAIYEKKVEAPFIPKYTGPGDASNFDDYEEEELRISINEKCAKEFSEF
# UniProt O75385: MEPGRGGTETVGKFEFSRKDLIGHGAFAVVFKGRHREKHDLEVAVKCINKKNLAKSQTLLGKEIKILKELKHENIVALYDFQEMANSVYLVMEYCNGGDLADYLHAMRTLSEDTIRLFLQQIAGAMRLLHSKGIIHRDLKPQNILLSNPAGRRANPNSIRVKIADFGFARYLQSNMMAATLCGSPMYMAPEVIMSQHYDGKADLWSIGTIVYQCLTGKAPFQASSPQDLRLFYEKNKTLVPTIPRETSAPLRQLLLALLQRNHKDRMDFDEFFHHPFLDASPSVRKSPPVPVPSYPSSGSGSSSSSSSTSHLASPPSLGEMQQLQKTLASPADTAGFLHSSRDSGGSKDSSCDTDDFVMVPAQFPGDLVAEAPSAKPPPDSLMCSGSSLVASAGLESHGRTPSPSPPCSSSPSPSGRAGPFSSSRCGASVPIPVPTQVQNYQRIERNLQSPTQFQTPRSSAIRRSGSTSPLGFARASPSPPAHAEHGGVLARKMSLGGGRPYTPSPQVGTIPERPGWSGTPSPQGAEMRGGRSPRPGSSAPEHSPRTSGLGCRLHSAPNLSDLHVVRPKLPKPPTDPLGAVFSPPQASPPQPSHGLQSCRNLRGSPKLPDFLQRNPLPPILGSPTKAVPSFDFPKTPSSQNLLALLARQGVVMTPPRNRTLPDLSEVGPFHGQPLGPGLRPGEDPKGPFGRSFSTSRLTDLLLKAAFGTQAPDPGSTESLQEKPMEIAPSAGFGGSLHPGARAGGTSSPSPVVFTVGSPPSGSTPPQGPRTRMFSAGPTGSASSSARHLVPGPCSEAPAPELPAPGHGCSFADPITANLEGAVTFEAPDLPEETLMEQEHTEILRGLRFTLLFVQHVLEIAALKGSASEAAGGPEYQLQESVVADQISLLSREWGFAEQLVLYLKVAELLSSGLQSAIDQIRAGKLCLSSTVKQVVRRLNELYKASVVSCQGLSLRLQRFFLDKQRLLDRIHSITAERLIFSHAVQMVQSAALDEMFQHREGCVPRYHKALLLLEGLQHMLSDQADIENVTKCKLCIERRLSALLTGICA
# UniProt Q9NR20: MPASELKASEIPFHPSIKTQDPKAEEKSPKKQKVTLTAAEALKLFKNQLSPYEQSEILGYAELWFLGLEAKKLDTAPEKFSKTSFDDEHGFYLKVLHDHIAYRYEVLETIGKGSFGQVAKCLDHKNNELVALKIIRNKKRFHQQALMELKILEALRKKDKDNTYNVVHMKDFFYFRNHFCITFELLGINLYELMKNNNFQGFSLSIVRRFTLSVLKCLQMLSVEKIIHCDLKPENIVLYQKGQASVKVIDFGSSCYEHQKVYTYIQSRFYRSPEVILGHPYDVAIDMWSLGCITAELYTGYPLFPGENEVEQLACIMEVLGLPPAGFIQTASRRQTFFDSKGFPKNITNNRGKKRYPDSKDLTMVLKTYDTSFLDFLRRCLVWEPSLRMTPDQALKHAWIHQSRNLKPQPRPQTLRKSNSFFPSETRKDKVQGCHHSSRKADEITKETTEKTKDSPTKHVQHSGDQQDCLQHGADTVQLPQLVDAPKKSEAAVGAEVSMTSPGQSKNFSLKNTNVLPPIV
# Columns and labels:
# Experiment in all cases: radiometric filter-binding kinase assay, Kinase HotSpot
# Conditions in all cases: compound 0.5 µM; ATP 10 µM
# TSSK2 (human) = TSSK2 (human) (UniProt Q96PF2)
# MAP3K11 (human) = MAP3K11 (human) (UniProt Q16584)
# INSRR (human) = INSRR (human) (UniProt P14616)
# FGFR3 (human) = FGFR3 (human) (UniProt P22607)
# NUAK2 (human) = NUAK2 (human) (UniProt Q9H093)
# PTK2B (human) = PTK2B (human) (UniProt Q14289)
# SGK2 (human) = SGK2 (human) (UniProt Q9HBY8)
# AKT3 (human) = AKT3 (human) (UniProt Q9Y243)
# CSF1R (human) = CSF1R (human) (UniProt P07333)
# PLK2 (human) = PLK2 (human) (UniProt Q9NYY3)
# CSNK1A1 (human) = CSNK1A1 (human) (UniProt P48729)
# MAPK3 (human) = MAPK3 (human) (UniProt P27361)
# TEK (human) = TEK (human) (UniProt Q02763)
# CHUK (human) = CHUK (human) (UniProt O15111)
# ACVRL1 (human) = ACVRL1 (human) (UniProt P37023)
# CSNK1E (human) = CSNK1E (human) (UniProt P49674)
# ADRBK1 (human) = ADRBK1 (human) (UniProt P25098)
# PAK6 (human) = PAK6 (human) (UniProt Q9NQU5)
# OXSR1 (human) = OXSR1 (human) (UniProt O95747)
# RPS6KA5 KD2 (human) = RPS6KA5 KD2 (human) (UniProt O75582)
# STK39 (human) = STK39 (human) (UniProt Q9UEW8)
# TYRO3 (human) = TYRO3 (human) (UniProt Q06418)
# IRAK4 (human) = IRAK4 (human) (UniProt Q9NWZ3)
# CAMKK1 (human) = CAMKK1 (human) (UniProt Q8N5S9)
# EPHA6 (human) = EPHA6 (human) (UniProt Q9UF33)
# BRSK2 (human) = BRSK2 (human) (UniProt Q8IWQ3)
# SRPK1 (human) = SRPK1 (human) (UniProt Q96SB4)
# CAMK1 (human) = CAMK1 (human) (UniProt Q14012)
# BMX (human) = BMX (human) (UniProt P51813)
# MET (human) = MET (human) (UniProt P08581)
# NTRK2 (human) = NTRK2 (human) (UniProt Q16620)
# STK25 (human) = STK25 (human) (UniProt O00506)
# AXL (human) = AXL (human) (UniProt P30530)
# DYRK2 (human) = DYRK2 (human) (UniProt Q92630)
# GSG2 (human) = GSG2 (human) (UniProt Q8TF76)
# TEC (human) = TEC (human) (UniProt P42680)
# EPHA4 (human) = EPHA4 (human) (UniProt P54764)
# EGFR (human) = EGFR (human) (UniProt P00533)
# PRKACG (human) = PRKACG (human) (UniProt P22612)
# CSK (human) = CSK (human) (UniProt P41240)
# ULK1 (human) = ULK1 (human) (UniProt O75385)
# DYRK4 (human) = DYRK4 (human) (UniProt Q9NR20)
structure (smiles),measurement,setting,value
O=C1Nc2ccc3ncsc3c2/C1=C/c1c[nH]cn1,residual activity,TSSK2 (human),94.9%
same,residual activity,MAP3K11 (human),28.9%
same,residual activity,INSRR (human),100%
same,residual activity,FGFR3 (human),34.8%
same,residual activity,NUAK2 (human),41.2%
same,residual activity,PTK2B (human),88%
same,residual activity,SGK2 (human),25%
same,residual activity,AKT3 (human),90.2%
same,residual activity,CSF1R (human),58.5%
same,residual activity,PLK2 (human),78.7%
same,residual activity,CSNK1A1 (human),67.6%
same,residual activity,MAPK3 (human),11.6%
same,residual activity,TEK (human),90.6%
same,residual activity,CHUK (human),53.2%
same,residual activity,ACVRL1 (human),113%
same,residual activity,CSNK1E (human),35.7%
same,residual activity,ADRBK1 (human),107%
same,residual activity,PAK6 (human),92.8%
same,residual activity,OXSR1 (human),79.8%
same,residual activity,RPS6KA5 KD2 (human),34.7%
same,residual activity,STK39 (human),93.7%
same,residual activity,TYRO3 (human),84.1%
same,residual activity,IRAK4 (human),59.5%
same,residual activity,CAMKK1 (human),58.1%
same,residual activity,EPHA6 (human),48.6%
same,residual activity,BRSK2 (human),10.2%
same,residual activity,SRPK1 (human),108%
same,residual activity,CAMK1 (human),81.9%
same,residual activity,BMX (human),81.9%
same,residual activity,MET (human),74.4%
same,residual activity,NTRK2 (human),17.4%
same,residual activity,STK25 (human),30.7%
same,residual activity,AXL (human),101%
same,residual activity,DYRK2 (human),12.1%
same,residual activity,GSG2 (human),5.68%
same,residual activity,TEC (human),116%
same,residual activity,EPHA4 (human),85.6%
same,residual activity,EGFR (human),74.4%
same,residual activity,PRKACG (human),87.6%
same,residual activity,CSK (human),87.2%
same,residual activity,ULK1 (human),21%
same,residual activity,DYRK4 (human),93.6%
